Results on 4 compounds are retold here after patent US7605156B2 (dated 2009).

The target in this test is T1, cPLA2 (Homo sapiens, UniProt P47712).
T1 sequence (P47712 1-749): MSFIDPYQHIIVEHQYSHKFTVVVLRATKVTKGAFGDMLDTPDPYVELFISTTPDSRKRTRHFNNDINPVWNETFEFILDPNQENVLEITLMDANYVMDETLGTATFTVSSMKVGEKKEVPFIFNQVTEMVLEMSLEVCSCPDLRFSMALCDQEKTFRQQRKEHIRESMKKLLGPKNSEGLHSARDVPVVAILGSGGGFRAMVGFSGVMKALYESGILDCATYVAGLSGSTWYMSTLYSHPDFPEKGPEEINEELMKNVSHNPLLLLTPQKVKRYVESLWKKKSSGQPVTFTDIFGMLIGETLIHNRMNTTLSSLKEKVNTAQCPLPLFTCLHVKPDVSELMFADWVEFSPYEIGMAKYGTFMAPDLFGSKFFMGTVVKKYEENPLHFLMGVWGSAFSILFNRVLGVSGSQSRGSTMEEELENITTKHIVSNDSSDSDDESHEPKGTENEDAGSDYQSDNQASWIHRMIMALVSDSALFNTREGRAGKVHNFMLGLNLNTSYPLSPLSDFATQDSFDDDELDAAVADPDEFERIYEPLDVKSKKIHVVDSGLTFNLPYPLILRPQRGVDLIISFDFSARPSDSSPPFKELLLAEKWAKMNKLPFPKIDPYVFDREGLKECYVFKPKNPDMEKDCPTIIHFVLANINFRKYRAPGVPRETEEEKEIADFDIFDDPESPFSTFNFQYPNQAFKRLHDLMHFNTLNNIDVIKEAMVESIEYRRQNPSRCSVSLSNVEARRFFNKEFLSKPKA
Briefly: Coumarine assay (hydrolysis of 7-hydroxycoumarinyl 6-heptenoate). It counts as biochemical. The settings on record: 60 μM 7-hydroxycoumarinyl 6-heptenoate, pH 7.5.

Read-outs that look alike come from different tables or passages of the source.

As for `CC1C(=O)NCCN1CCS(=O)(=O)NCCc1c(CCOc2ccc(C(=O)O)cc2)c2cc(Cl)ccc2n1C(c1ccccc1)c1ccccc1` (stereo not shown) [Example 253, 4-(2-{1-benzhydryl-5-chloro-2-[2-({[2-(2-methyl-3-oxopiperazin-1-yl)ethyl]sulfonyl}amino)ethyl]-1H-indol-3-yl}ethoxy)benzoic acid], 0.75 µM corresponded to half-maximal inhibition (Coumarin IC50 (uM)) (IC50).
Same read-out and setting: next, `CC(=O)N1CCN(CCS(=O)(=O)NCCc2c(CCOc3ccc(C(=O)O)cc3)c3cc(Cl)ccc3n2C(c2ccccc2)c2ccccc2)CC1` [Example 242, 4-[2-(2-{2-[2-(4-Acetyl-piperazin-1-yl)-ethanesulfonylamino]-ethyl}-1-benzhydryl-5-chloro-1H-indol-3-yl)-ethoxy]-benzoic acid]: 1.3 µM.
As to “4-(2-{1-benzhydryl-5-chloro-2-[2-(2-methoxy-phenyl-sulfanylmethanesulfonylamino)-ethyl]-1H-indol-3-yl}-ethoxy)-benzoic acid [Example 83]”, under “read-out: Coumarin IC50”, the IC50 worked out at 0.45 µM.
For the compound `CC1CN(CCS(=O)(=O)NCCc2c(CCOc3ccc(C(=O)O)cc3)c3cc(Cl)ccc3n2C(c2ccccc2)c2ccccc2)CC(C)N1` (stereo not shown) [Example 243, 4-[2-(1-Benzhydryl-5-chloro-2-{2-[2-(3,5-dimethyl-piperazin-1-yl)-ethanesulfonylamino]-ethyl}-1H-indol-3-yl)-ethoxy]-benzoic acid], inhibition (Coumarin IC50 (uM)) was half-maximal at 0.75 µM (IC50).
